Protein sequences, listed by entry. Tags and fused reporters are not part of them. Lines headed by an entry give the natural chain unless they say otherwise; changes in a name come on top.
UniProt P78536: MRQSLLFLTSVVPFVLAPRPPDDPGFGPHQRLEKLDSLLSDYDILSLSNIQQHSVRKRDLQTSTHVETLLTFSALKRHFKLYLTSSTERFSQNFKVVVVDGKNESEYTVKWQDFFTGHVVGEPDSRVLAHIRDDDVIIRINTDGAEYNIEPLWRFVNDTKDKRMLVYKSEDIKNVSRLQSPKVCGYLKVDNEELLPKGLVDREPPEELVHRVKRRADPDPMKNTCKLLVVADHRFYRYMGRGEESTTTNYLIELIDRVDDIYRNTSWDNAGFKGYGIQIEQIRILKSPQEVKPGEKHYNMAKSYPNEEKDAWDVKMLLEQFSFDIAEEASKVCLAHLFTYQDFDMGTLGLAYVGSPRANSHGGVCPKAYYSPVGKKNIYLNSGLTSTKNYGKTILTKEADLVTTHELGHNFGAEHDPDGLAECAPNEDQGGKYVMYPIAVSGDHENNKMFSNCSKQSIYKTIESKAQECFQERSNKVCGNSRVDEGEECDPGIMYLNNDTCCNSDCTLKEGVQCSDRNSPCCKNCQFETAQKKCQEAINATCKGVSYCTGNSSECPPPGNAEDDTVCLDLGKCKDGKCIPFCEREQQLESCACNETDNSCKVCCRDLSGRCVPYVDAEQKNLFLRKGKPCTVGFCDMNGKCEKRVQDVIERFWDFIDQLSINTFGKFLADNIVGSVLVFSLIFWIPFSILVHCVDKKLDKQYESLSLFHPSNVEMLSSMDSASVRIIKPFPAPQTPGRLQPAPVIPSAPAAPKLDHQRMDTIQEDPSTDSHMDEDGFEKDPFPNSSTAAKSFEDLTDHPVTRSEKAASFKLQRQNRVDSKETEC

In ChEMBL document CHEMBL1134554, “Design, synthesis, and structure-activity relationships of macrocyclic hydroxamic acids that inhibit tumor necrosis factor alpha release in vitro and in vivo” (J Med Chem, 2001):

Target: Disintegrin and metalloproteinase domain-containing protein 17 (Homo sapiens, UniProt P78536)

CNC(=O)[C@@H](NC(=O)[C@H](CC(C)C)[C@H](O)C(=O)NO)C(C)(C)C
IC50: 4.1 µM
